Test results: publication PMC13289212, “HIVIL: A human in vitro inflammatory liver model recapitulates immune-associated drug effects with high predictivity” (NAM journal, 2025)

Test system: IL-6
Experiment: Optimization of stimulator and duration: IL-6 production
Assay type: cell-based
Conditions: primary human KCs and iKCs
Text: Neither LPS nor IL-2 stimulated IL-6 production from PHHs and iHeps (Fig. 1g). LPS, but not IL-2, stimulated IL-6 production in iKCs and PHKCs, in mono-culture and co-culture with iHeps (Fig. S2a). […] Therefore, LPS was used for subsequent experiments to stimulate inflammation. […] In order to evaluate the time-dependent inflammatory responses, we measured interleukin-6 (IL-6) production within 48 hr post-LPS treatment. IL-6 was only produced at 24 hr and 48 hr, by 10.15- and 4.70-fold compared to vehicle control respectively, but not at 2 hr and 6 hr (Fig. S2b). The difference between 24 hr and 48 hr was non-significant (p=0.41), indicating IL-6 response plateaus after 24 hr.

## interleukin-2 [IL-2]
  stimulation of cytokine production: failed to stimulate
